Values quoted from earlier work, collected in patent US20070248599A1 (priority 2006, published 2007).

Target: LDL (low-density lipoprotein) lipid receptor (Homo sapiens, UniProt P01130)
Settings: cited from earlier work

ApoE2: recombinant ApoE isoform with cysteine at residue 158, from Alpha Diagnostic
normal receptor binding activity: less than 2%
